Measured values taken from ChEMBL document CHEMBL2203054, “Synthesis and biological evaluation of a selective N- and p/q-type calcium channel agonist” (ACS Med Chem Lett, 2012).

Sequences of proteins named here, by UniProt entry; tags and fusion partners are left off.
UniProt Q00975, whole entry: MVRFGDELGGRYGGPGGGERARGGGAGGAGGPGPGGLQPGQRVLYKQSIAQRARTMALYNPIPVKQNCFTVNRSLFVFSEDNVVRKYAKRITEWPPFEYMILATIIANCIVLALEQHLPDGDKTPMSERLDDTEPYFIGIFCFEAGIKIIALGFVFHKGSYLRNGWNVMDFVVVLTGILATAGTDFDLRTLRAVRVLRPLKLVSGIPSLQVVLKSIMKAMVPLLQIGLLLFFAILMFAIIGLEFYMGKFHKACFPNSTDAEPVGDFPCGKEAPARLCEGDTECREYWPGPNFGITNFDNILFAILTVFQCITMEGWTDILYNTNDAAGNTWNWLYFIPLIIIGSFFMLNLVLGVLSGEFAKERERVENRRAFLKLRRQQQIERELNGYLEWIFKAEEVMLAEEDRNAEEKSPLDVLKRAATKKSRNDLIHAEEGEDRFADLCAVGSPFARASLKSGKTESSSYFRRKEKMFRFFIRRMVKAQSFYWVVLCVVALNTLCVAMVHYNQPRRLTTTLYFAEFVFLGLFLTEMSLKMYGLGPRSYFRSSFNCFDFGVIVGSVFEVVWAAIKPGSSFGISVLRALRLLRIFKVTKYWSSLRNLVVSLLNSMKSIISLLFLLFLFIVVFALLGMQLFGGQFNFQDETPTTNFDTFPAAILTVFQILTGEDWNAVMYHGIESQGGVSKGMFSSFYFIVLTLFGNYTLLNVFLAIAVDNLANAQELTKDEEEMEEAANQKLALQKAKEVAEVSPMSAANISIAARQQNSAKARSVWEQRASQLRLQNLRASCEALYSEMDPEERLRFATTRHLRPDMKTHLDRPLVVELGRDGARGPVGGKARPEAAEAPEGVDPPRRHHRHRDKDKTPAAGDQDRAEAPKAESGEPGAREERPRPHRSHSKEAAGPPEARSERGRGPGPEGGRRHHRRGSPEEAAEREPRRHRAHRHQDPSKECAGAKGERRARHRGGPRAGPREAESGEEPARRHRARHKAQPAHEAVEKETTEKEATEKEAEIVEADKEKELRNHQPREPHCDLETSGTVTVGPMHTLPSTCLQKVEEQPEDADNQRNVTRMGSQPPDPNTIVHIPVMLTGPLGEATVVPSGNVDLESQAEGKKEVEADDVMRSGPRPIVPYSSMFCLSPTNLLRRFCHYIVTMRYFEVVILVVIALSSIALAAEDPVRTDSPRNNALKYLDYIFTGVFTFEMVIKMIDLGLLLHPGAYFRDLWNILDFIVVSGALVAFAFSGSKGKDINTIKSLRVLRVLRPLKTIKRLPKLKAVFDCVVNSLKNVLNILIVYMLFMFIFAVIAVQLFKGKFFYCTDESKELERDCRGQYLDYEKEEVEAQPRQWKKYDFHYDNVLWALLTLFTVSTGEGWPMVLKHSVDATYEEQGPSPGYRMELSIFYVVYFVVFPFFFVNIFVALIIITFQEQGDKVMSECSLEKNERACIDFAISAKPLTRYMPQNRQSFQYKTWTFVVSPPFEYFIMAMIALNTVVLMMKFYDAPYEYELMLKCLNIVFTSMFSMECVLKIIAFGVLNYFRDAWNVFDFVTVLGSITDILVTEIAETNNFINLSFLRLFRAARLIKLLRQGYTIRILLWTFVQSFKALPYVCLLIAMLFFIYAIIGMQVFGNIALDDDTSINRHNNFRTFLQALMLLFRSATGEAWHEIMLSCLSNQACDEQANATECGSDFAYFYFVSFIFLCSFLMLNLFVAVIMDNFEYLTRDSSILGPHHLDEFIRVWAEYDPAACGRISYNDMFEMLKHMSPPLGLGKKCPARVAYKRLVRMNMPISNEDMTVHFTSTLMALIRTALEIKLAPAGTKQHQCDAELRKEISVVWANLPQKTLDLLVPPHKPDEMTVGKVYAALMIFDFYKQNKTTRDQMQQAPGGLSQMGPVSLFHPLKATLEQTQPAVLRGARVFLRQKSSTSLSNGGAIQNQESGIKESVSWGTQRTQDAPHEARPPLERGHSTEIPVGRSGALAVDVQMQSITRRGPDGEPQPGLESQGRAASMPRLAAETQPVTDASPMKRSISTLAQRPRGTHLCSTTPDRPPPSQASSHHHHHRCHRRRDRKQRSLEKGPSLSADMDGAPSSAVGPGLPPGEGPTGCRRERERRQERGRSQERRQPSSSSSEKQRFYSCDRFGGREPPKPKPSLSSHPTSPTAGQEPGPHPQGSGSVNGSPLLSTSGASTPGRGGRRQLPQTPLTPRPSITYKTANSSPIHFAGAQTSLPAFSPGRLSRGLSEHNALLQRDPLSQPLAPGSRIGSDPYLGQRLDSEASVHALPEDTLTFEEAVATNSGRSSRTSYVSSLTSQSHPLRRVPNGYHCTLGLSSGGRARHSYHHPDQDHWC

Molecular target: Voltage-dependent N-type calcium channel subunit alpha-1B (Homo sapiens, UniProt Q00975)
Assay: Agonist activity at N-type Cav2.2 channel expressed in tsA201 cell assessed as calcium current by whole-cell patch clamp method
Type: functional, cell-based

CC[C@@H](CO)Nc1nc(NCc2ccccc2)c2ncn(C(C)C)c2n1 [(S)-ROSCOVITINE]
EC50: 570 µM
